dFosB activator: activators of mouse delta FosB homodimer. P13346. purified delta FosB, TAMRA-CDK5 oligo fluorescence polarization; percent of positive-control signal above neutral wells. activation, % at 25 µM. hit rate 0.99% among 340,000;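 active means mean activation above about 17%, with every replicate also reaching it, limit read from the data, passing the limit was not always enough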
Dyrk1A ADPGlo: Dyrk1A (rat) kinase inhibition | Q63470 | ADP-Glo luminescence, NFATc1 peptide | inhibition, % at 12.5 µM | hit rate 0.43% among 310,000 | AID 504441; in the data active means inhibition above about 50%;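 further: plate controls were vehicle with enzyme for no effect and no enzyme for full effect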
CDK5 inh: blocks human CDK5/p35 kinase activity | hit rate 0.01% among 330,000 | Q00535+Q15078 | inhibition, % at 10 µM | Recombinant CDK5/p35, ADP-Glo luminescence, 60 min;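 active means highest replicate inhibition of at least 50% and at least 75% of replicates reaching 50%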;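 further: plate controls were DMSO neutral control for no effect and GW8510 at 10 µM for full effect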
Yeast UUG start: yeast start codon fidelity modulation | S. cerevisiae UUG-firefly luciferase reporter, luminescence/redox ratio | activity score, % at 18.7 µM | 0.13% of 350,000 active | AID 602363;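 active means replicate mean at a twofold rise or more, about +100% in these data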;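 further: firefly luciferase made from a UUG start codon reports start codon fidelity; reporter light over untreated wells divided by growth signal over untreated wells; some hits fall short of that in this replicate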
CAL PDZ FP-1: human CAL PDZ-peptide interaction inhibition; Q9HD26; purified CAL PDZ, TMR-peptide fluorescence polarization, 1 h; inhibition, % at 20 µM; hit rate 0.02% among 330,000;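 active means highest replicate inhibition of at least 40%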;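 further: plate controls were DMSO neutral control wells for no effect and unlabeled competitor peptide control wells for full effect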
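System: tagged CAL PDZ domain. Schedule: 1 h room-temperature incubation prior to read. Signal: fluorescence polarization (mP). Measure: percent inhibition from loss of millipolarization.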
CAL PDZ FP-2: CAL PDZ (human) peptide binding inhibition. AID 602252. Q9HD26. hit rate 0.92% among 300,000. inhibition, % at 24.9 µM. purified CAL PDZ, TMR-peptide fluorescence polarization, 1 h;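 active means mean inhibition of at least 30% with at least half of replicates also reaching 30%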;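 further: 0% = DMSO neutral control and 100% = excess unlabeled competitor peptide PRC23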
* = called active by the depositor; / = no result. Hits are enriched below; roughly 1.7% of the tested compounds scored in any of these assays.

dFosB activator	Dyrk1A ADPGlo	CDK5 inh	Yeast UUG start	CAL PDZ FP-1	CAL PDZ FP-2	Compound
0.1	12.1	0.2	9.2	/	48.6*	C=CCn1c(SC2CCOC2=O)nc2sc(C)c(C)c2c1=O (configuration not stated)
/	/	/	-8.8	/	/	COc1ccc(S(=O)(=O)N[C@H]2CC[C@H](CC(=O)O)O[C@H]2CO)cc1
-13.3	-1.3	-0.6	-0.8	-0.6	48.7*	CN(C)/N=C/C=C1\CC/C(=C\c2ccc(Br)cc2)C1=O
32.9*	2.1	1.6	/	-0.4	/	COc1ccc(OC)c(-c2csc(NC(=O)CSc3nnnn3C)n2)c1
-4.7	0.3	1.9	1.4	-1.9	37.1*	Cc1ccc(C)c(OCC(O)CN2CCC(Cc3ccccc3)CC2)c1 (configuration not stated)
/	/	/	-3.7	/	/	CC(C)NC(=O)N(C)C[C@@H]1OCCCC[C@@H](C)Oc2ccc(NS(=O)(=O)c3ccccc3)cc2C(=O)N([C@H](C)CO)C[C@H]1C
17.0*	3.7	-0.3	-10.3	-1.2	-4.1	OCCN1CCN(CC/C=C2/c3ccccc3Sc3ccc(Cl)cc32)CC1
49.2*	-3.0	2.9	-18.0	-1.5	4.4	Oc1ccc(C[C@H]2CNC(=S)N2CC2CCCN2C[C@H](Cc2ccc(O)cc2)N2C[C@H](Cc3ccccc3)N(CC3CCCCC3)C2=S)cc1 (some centres not stated)
/	/	/	-10.0	/	/	Oc1ccc(C[C@H]2CN([C@@H](Cc3ccccc3)CN3CCC[C@@H]3CN3C(=S)NC[C@@H]3Cc3ccccc3)C(=S)N2CC2CCCCC2)cc1
/	/	/	11.3	/	/	C[C@@H]1CN([C@H](C)CO)C(=O)c2cc(NS(=O)(=O)c3cccs3)ccc2O[C@@H](C)CCCCO[C@@H]1CN(C)C(=O)Cc1ccccc1
-14.6	1.8	1.7	-12.4	-1.9	30.7*	COc1ccc(NC(C)=O)cc1NC(=O)c1ccc(C#N)cc1
9.1	-4.1	-5.0	-8.7	-1.2	-10.0	O=[N+]([O-])c1cc(S(=O)(=O)N2CCOCC2)ccc1OCc1cccc(Cl)c1
0.1	0.2	-2.2	-1.2	-1.1	50.3*	O=C1c2ccccc2C(=O)N1COc1ccc(S(=O)(=O)N2CCOCC2)cc1[N+](=O)[O-]
-7.1	-1.0	2.8	-12.6	-1.4	47.1*	Cc1ccc(S(=O)(=O)Cc2cc(F)c([N+](=O)[O-])cc2[N+](=O)[O-])cc1
-7.9	-0.4	-0.5	0.3	/	49.0*	Cc1ccc(/C=N/N(C)S(=O)(=O)c2ccc(C)cc2)cc1
-13.0	-6.1	-1.1	-14.3	-2.4	30.7*	CCOC(=O)c1c(NC(=O)c2cccs2)sc(CC)c1-c1cccs1
-2.9	4.7	0.8	/	-1.2	-4.5	C/C(CC(=O)Nc1cccnc1)=N\NC(=O)c1ccc([N+](=O)[O-])c(Cl)c1
-7.7	0.7	0.6	11.3	-0.6	30.1*	CC(=O)Nc1ccccc1NC(=O)C/C(C)=N/NC(=O)c1ccc([N+](=O)[O-])c(Cl)c1
/	/	/	-14.8	/	/	Cc1ccc(S(=O)(=O)N2CC[C@H]3[C@@H](CO)N(C)c4ccc(-c5cccc(C#N)c5)cc4[C@H]32)cc1
41.9*	-6.4	0.0	-19.5	-2.8	1.7	S=c1[nH]nc(-c2cccc(Cl)c2)n1/N=C/c1ccc(-c2ccccc2Br)o1

Record cards, as listed above.
Cc1ccc(S(=O)(=O)Cc2cc(F)c([N+](=O)[O-])cc2[N+](=O)[O-])cc1 as listed: dFosB activator: -7.1; Dyrk1A ADPGlo: -1.0; CDK5 inh: 2.8; Yeast UUG start: -12.6; CAL PDZ FP-1: -1.4; CAL PDZ FP-2: 47.1*
S=c1[nH]nc(-c2cccc(Cl)c2)n1/N=C/c1ccc(-c2ccccc2Br)o1 as listed: dFosB activator: 41.9*; Dyrk1A ADPGlo: -6.4; CDK5 inh: 0.0; Yeast UUG start: -19.5; CAL PDZ FP-1: -2.8; CAL PDZ FP-2: 1.7

(list continues)
dFosB activator	Dyrk1A ADPGlo	CDK5 inh	Yeast UUG start	CAL PDZ FP-1	CAL PDZ FP-2	Compound
/	/	/	-8.1	/	/	COc1ccc(NC(=O)N(C)C[C@@H]2OCCCC[C@@H](C)Oc3ccc(NC(=O)Nc4ccccc4)cc3C(=O)N([C@H](C)CO)C[C@@H]2C)cc1
/	/	/	-4.4	/	/	CCS(=O)(=O)NCC[C@@H]1CC[C@@H](NC(=O)C2CCOCC2)[C@@H](CO)O1
-3.0	-2.3	-0.2	/	-0.4	74.3*	Cc1cccc(NC(=O)CN2C(=O)N/C(=C/c3cc(C)n(-c4cccnc4)c3C)C2=O)c1
8.7	-2.0	-0.9	-12.7	-0.7	-9.9	Cc1cccc(NC(=O)CN2C(=O)N/C(=C/c3cc(C)n(-c4ccncc4)c3C)C2=O)c1
/	/	/	-1.0	/	/	C[C@@H]1CN([C@@H](C)CO)C(=O)c2cc(NC(=O)C3CC3)ccc2O[C@@H]1CN(C)Cc1ccncc1
-2.0	/	-2.6	/	-1.0	42.9*	COC(=O)c1ccc(NC(=O)CNc2ccccc2)cc1
-1.7	2.9	0.6	2.4	-1.0	31.5*	Cn1c(=O)c2sc3c(c2n(CC(=O)Nc2ccccc2)c1=O)COC(C)(C)C3
3.8	-2.8	-1.8	0.1	1.1	-1.0	Cn1c(=O)n(CC(=O)Nc2ccccc2)c2ccccc21
